This note sets out measurements from ChEMBL document CHEMBL2375356, “Design, synthesis and biological evaluation of new classes of thieno[3,2-d]pyrimidinone and thieno[1,2,3]triazine as inhibitor of vascular endothelial growth factor receptor-2 (VEGFR-2)” (Eur J Med Chem, 2013).

The test has as its system HUVEC. Description: Antiangiogenic activity in HUVEC assessed as inhibition of VEGF-induced tube formation after 24 hrs by phalloidin-sulforhodamine staining method. It is filed as functional, cell-based. The conditions noted are these: Homo sapiens.

As for `O=c1[nH]c(CN2CCCCC2)nc2cc(-c3cn(Cc4ccccc4)c4ccccc34)sc12`, the inhibition entry is “Dose-dependent effect”.
